Source: paper PMC6858373 (Scientific Reports, 2019)

By UniProt entry, the sequences of proteins in these tests, tags left out. Residues count along the entry.
UniProt Q92915, 1-252 isoform Q92915-2: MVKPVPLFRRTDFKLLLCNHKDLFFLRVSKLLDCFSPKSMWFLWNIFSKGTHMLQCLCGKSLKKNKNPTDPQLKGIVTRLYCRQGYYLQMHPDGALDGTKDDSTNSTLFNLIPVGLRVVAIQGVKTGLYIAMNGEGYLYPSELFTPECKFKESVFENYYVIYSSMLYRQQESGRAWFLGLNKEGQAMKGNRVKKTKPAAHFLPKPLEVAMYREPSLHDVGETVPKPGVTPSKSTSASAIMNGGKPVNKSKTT
UniProt Q9UQD0, 1763-1976 limits assumed: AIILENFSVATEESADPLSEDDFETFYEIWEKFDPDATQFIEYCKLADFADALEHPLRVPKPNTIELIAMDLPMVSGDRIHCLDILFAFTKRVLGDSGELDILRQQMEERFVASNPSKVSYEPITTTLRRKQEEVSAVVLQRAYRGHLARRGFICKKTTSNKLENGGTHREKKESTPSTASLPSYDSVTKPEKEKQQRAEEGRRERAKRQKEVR

Biological target: FGF14:Nav1.6 C-tail complex (Homo sapiens, UniProt Q92915+Q9UQD0)
Assay: Split-luciferase complementation assay (LCA) in Clone V double stable HEK293 cells
Conditions: CC_NCI screening, biological replicate Set 1

**Q.** For `CS(=O)(=O)CCNCc1ccc(-c2ccc3ncnc(Nc4ccc(OCc5cccc(F)c5)c(Cl)c4)c3c2)o1` [LAPATINIB], which “Split Luciferase Assay % Lum Set 1” value (LCA luminescence, normalized to on-plate 0.3% DMSO controls (n=16 per plate)) is on record?
**A.** 118.82%

**Q.** And the “Split Luciferase Assay Z-score Set 1” value (LCA, normalized to on-plate 0.3% DMSO controls)?
**A.** 1.52
